# Target: T1, μ (Mus musculus, UniProt P42866)
# By UniProt entry, the sequences of proteins in these tests, tags left out.
# UniProt P42866, whole entry: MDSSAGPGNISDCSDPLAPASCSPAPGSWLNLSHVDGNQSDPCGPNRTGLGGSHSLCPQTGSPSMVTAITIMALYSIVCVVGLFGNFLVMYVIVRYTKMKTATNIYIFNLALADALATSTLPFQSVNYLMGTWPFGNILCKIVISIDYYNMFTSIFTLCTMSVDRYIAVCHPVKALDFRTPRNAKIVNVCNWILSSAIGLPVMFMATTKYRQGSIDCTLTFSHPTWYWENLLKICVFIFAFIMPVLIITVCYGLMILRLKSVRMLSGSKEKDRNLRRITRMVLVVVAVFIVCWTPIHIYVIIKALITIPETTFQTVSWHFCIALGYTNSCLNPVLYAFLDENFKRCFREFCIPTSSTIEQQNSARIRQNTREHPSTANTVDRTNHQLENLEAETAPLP
# T1 construct: male Swiss-Webster mice; from tissue; host or cells: living mouse (male Swiss-Webster)
# Experiment: Tail-flick assay, antagonism of morphine (μ) antinociception
# Type: in vivo, male Swiss-Webster mice
# Conditions: mice
smiles,measurement,setting,value
"CN1CC[C@]23c4c5ccc(O)c4O[C@H]2[C@@H](O)C=C[C@H]3[C@H]1C5 [Morphine, morphine, reference compound]",Peak antinociceptive activity time,agonist,30 min
same,Control ED50 (95% C.L.),"morphine s.c., no antagonist, 30 min",9.7 (8.6-10.9) μmol/kg
